Reference: publication PMC8163800, “Extreme parsimony in ATP consumption by 20S complexes in the global disassembly of single SNARE complexes” (Nature Communications, 2021)
“And” between values parts separate entries of the source, which are not always exact repeats. Equal values may be shown once. Blank lines part the entries; values can stand above or below the substance they belong to.

The chains behind the UniProt entries cited, without tags or fusion partners. Where a name states a change or a piece, a line headed by the entry shows the natural chain unless it says otherwise.
UniProt P60881: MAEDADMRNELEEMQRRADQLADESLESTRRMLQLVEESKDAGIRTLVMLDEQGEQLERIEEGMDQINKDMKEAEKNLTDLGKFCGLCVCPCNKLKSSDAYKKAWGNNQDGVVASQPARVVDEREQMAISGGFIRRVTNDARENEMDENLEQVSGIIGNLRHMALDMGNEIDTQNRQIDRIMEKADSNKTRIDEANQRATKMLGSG

Assays:
[1] = biological target: SNARE–αSNAP complex on vesicles (rat | bovine) (UniProt P60881); test: single-molecule pull-down of labelled NSF via the SNARE–αSNAP complex with counting of photobleaching steps (TIRF); SNARE vesicles (1:500) held on NeutrAvidin, 100 nM αSNAP loaded and washed; 5 pM NSF (WT or A-MT hybrid) or 10 pM NSF (N-MT hybrid); non-hydrolyzing, 1 mM ATP/1 mM EDTA; H50N50 buffer
[2] = biological target: vesicle-reconstituted SNARE complex (ΔN-SNARE complex vesicles loaded with soluble synaptobrevin-2 1–96) (rat) (UniProt P60881); test: single-molecule fluorescence co-localisation with counting of photobleaching steps (TIRF); SNARE vesicles (1:30,000 protein/lipid) held on NeutrAvidin; 100 nM SNAP-tag-αSNAP, then 1 nM Dylight549-labelled NSF with 1 mM ATP and 1 mM EDTA; H50N50 buffer

relative avidity (normalized to single-mutant hexamers) [1]: 25%
Substance: N-MT hybrid NSF hexamer with three N-MT subunits (from UniProt P18708 1-744; P18708 207-744) (complex)

reduction of relative avidity against hexamers with one N-MT subunit [1]: 20%
Substance: N-MT hybrid NSF hexamer with two N-MT subunits (from UniProt P18708 1-744; P18708 207-744) (complex)

percent of 20S complexes with four photobleaching steps of αSNAP [2]: 14%
stoichiometry N [2]: 4 and 2
Substance: SNAP-tag-αSNAP labelled with BG-Alexa647 (from UniProt P81125 1-295) (natural protein)
